From patent publication EP0155486A1, “1,3,5-Trisubstituted 1,2,4-triazole derivatives, process for their preparation and medicinal preparations containing them” (priority 1984, dated 1985)

How the values were obtained:
[1] = tested on: männlichen Ratten der Art Long Evans; format: in vivo; conditions: ratio of peroral LD50 to peroral ED50, rats
Protocol: Die Untersuchung der therapeutischen Wirkung der erfindungsgemäßen 1,2,4-Triazolderivate wurde mittels des modifizierten Newbould-Prüfversuches (Brit. J. Pharmacol., 21 [1963], Seite 127) durchgeführt. Dazu wurde in die rechen Hinterfüße von männlichen Ratten der Art Long Evans mit Gewichten von 180 bis 250 g intraplantar […] abgetötetes Mycobacterium tuberculosis in einem Volumen von 0,1 ml injiziert. Nachfolgend wurden die Ratten pro betreffenden Tag mit einer Dosis der zu untersuchenden Verbindung insgesamt 16-mal während 3 Wochen behandelt. Die Änderung des Volumens der Fußschwellung wurde 21 Tage lang täglich mit einem Quecksilber-Plethysmometer vom Lence-Typ bestimmt. Vom 10-ten Tag an wurde das Volumen des linken Hinterfußes bestimmt. Die prozentuale Hemmung wurde im Verhältnis zu diesem Volumen aus der eintretenden Änderung in der Schwellung des rechten Hinterfußes berechnet.

in vivo = conditions: rat, po

SMILES: CSc1nc(-c2ccc(Cl)cc2)n(-c2ccc(Cl)cc2)n1 [Beispiel 27, 1,5-Bis-[4'-(chlor)-phenyl]-3--[methylthio]-1,2,4-triazol]
- Therapeu-tischer Index LD50-Wert / ED50-Wert [1]: 64,9
- LD50 (in vivo): 480 mg/kg
